Experimental data reported in article PMC3466212, “Novel AChE Inhibitors for Sustainable Insecticide Resistance Management” (PLoS ONE, 2012).
pIC50: −log10 of the molar value.

Chains of the proteins cited; added tags and fusions are not shown. Residues count along the entry.
UniProt Q86GC8, 37-702: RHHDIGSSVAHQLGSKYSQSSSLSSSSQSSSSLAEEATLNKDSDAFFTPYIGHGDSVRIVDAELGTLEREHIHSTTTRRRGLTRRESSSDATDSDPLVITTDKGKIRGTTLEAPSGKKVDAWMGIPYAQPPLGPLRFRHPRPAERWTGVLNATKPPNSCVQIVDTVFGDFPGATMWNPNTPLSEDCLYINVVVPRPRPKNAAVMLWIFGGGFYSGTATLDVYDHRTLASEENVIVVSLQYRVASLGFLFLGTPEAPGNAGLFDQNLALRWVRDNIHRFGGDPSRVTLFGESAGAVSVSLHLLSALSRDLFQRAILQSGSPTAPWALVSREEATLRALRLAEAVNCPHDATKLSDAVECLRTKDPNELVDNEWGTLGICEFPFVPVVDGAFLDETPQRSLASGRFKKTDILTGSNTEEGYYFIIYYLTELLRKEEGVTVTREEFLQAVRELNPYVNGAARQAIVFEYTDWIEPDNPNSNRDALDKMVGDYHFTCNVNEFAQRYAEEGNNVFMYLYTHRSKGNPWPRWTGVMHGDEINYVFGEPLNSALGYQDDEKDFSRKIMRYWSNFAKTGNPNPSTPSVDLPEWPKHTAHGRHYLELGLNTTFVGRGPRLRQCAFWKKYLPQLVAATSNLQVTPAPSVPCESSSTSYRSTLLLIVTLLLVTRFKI

Target: WT AChE1 (Culex pipiens, UniProt Q86GC8)
Assay: AChE assay (Ellman), dose-response on recombinant WT AChE1
Format: biochemical
Design: made in house; host or cells: Drosophila S2 cells

**Q.** How did the pIC50 turn out when CCOP(=O)(OCC)Oc1nc(Cl)c(Cl)cc1Cl [Chlorpyrifos-oxon, reference compound] was run?
**A.** The pIC50 was 8.00.

**Q.** How did the pIC50 turn out when CCOP(=O)(OCC)Oc1ccc([N+](=O)[O-])cc1 [Paraoxon, reference compound] was run?
**A.** Its pIC50 is 6.77.
